Assay: Water solubility, modified ASTM-D1766

Zinc Dodecanedioate Triethanolamine
Solubility description (Table VI): PINS (practically insoluble (<.1 g/100cc H2 O))
Solubility (modified ASTM-D1766): .001 g/100cc H2 O
